Legend:
Type in all cases: biochemical
thrombin = thrombin (Bos taurus, UniProt P00735); assay: Inhibition of thrombin (dissociation constant Ki)
plasmin = target: T1, plasmin (Homo sapiens, UniProt P00747); assay: Inhibition of plasmin (Ki)
T1 construct: trypsin and the related enzymes thrombin, plasmin, factor Xa, tPA

Sequences of proteins named here, by UniProt entry; tags and fusion partners are left off. Residues count along the entry.
UniProt P00747, 97-580 partner limits assumed: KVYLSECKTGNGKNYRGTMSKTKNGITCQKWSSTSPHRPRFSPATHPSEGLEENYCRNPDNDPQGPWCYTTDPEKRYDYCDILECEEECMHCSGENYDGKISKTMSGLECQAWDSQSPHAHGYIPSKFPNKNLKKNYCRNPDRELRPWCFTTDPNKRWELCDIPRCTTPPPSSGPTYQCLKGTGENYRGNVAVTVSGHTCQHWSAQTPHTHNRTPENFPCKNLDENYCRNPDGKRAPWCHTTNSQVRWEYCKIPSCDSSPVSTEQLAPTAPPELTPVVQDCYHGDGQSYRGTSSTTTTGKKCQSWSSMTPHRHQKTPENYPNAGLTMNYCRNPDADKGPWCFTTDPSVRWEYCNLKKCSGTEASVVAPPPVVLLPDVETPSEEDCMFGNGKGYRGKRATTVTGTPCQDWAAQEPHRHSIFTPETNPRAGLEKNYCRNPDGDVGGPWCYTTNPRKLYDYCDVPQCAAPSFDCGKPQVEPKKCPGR
UniProt P00747, 581-810 limits assumed: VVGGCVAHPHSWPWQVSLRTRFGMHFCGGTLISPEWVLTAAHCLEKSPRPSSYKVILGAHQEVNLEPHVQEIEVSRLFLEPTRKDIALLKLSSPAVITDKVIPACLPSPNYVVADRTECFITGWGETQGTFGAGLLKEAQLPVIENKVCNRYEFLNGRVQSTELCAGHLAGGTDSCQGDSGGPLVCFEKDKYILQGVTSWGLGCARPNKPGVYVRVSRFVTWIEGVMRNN
UniProt P00750, 36-562: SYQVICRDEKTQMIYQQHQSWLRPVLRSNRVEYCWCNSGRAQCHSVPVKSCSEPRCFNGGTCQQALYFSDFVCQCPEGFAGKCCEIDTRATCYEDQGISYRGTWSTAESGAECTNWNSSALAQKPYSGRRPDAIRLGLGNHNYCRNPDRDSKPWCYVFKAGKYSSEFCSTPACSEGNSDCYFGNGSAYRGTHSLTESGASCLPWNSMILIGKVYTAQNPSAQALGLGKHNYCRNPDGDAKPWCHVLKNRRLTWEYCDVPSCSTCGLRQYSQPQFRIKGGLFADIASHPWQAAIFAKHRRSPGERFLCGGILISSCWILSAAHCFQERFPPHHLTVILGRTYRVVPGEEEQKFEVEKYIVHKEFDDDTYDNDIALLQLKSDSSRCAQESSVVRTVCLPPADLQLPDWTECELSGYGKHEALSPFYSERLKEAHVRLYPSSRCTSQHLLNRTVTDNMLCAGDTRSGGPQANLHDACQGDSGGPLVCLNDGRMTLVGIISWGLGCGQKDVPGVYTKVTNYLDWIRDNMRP

factor XIIa = target: T2, factor XIIa (Homo sapiens, UniProt P00748); assay: Inhibition of factor XIIa (Ki)
T2 construct: glandular kallikrein, factor XIIa and plasma kallikrein
T2 sequence (P00748 373-615 limits assumed): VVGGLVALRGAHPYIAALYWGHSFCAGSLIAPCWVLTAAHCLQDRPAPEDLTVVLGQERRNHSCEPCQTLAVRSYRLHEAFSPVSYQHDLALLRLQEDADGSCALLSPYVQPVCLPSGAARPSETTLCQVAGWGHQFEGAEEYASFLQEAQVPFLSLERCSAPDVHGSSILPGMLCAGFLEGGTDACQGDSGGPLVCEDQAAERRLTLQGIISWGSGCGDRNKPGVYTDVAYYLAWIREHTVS

tPA = tPA (Homo sapiens, UniProt P00750); assay: Inhibition of tPA (Ki)

SMILES | Ki (thrombin) | Ki (plasmin) | Ki (factor XIIa) | Ki (tPA)
CC1CCN(C(=O)C(Cc2cccc(C(=N)N)c2)NS(=O)(=O)c2ccc3ccccc3c2)CC1 (racemic) [Compound 34] | 0.0086 µM | – | – | –
N=C(N)c1ccc(C[C@H](NC(=O)CNS(=O)(=O)c2ccc3ccccc3c2)C(=O)N2CCCCC2)cc1 [NAPAP, Nα-(2-naphthylsulfonylglycyl)-4-amidinophenylalanine piperidide, reference compound] | – | 30 µM | 500 µM | 70 µM
